In US20200078393A1, “COMPOSITION COMPRISING HYDROGEN GAS FOR SUPPRESSION OR PREVENTION OF CANCER METASTASIS” (MiZ Company Limited, priority 2018, published 2020):

Assays:
[1] = tested on: pancreatic cancer; assay: Case of stage 4 pancreatic cancer with liver metastasis, hydrogen gas inhalation; conditions: hydrogen 6.6% by volume, 90 minutes twice a day
[2] = tested on: undifferentiated soft tissue sarcoma; assay: Case of undifferentiated soft tissue sarcoma metastasized to the lungs, hydrogen gas inhalation; conditions: 3 months after inhalation started; hydrogen 6.6% by volume, 60 to 90 minutes once or twice a day
[3] = tested on: lung adenocarcinoma; assay: Case of lung adenocarcinoma with spine metastases, continuous hydrogen gas inhalation
[4] = tested on: Lewis Lung Carcinoma cells (LLC); assay: Mouse lung cancer cell transplantation model, hydrogen gas inhalation

In the case of hydrogen, the “change in size of the pancreatic cancer and the cancers metastasized to the liver” value ([1]; 2 months after inhalation started) is reported as “no change detected”, the “change in size of the pancreatic cancer and the cancers metastasized to the liver” value ([1]; 6 months after inhalation started) is reported as “no change detected” and the “change in size of lung sarcomas” value [2] is reported as “no change detected”. For the same substance, the “tumors metastasized to the spine by CT examination” value ([3]; Dec. 22, 2018, hydrogen 6 to 7% by volume, 2 to 3 hours/day from Oct. 17, 2018) was “regression”, the CEA value ([3]; Dec. 27, 2018, hydrogen inhalation from Oct. 17, 2018) was 2.6 ng/mL and the CEA value ([3]; Jan. 28, 2019, hydrogen inhalation from Oct. 17, 2018) was 1.5 ng/mL. The CEA value ([3]; Nov. 26, 2018, hydrogen 6 to 7% by volume, 2 to 3 hours/day from Oct. 17, 2018, 34.5 in July 2018 before inhalation) was 10 ng/mL, the “mice with no engraftment of the lung cancer cells detected” value ([4]; hydrogen 3.5%, atmospheric pressure of 1.35, 1 hour a day for 7 days from day 8, group of 5 mice) was 2 and the “mice with metastasis of the lung cancer cells to other organs” value ([4]; hydrogen 3.5%, atmospheric pressure of 1.35, 1 hour a day, visual observation of dissected mice, control: 2 among 4 mice) was “no mouse among 5 mice”. For the same substance, the “cell densities of lung cancer cells in HE-stained lung tissue” value ([4]; optical microscope x200 and x400, control: high cell densities) was “comparatively low”.
